Data on one substance can be found in patent publication US10209240B2, “Predicting human developmental toxicity of pharmaceuticals using human stem-like cells and metabolomic ratios” (STEMINA BIOMARKER DISCOVERY, INC., priority 2012, dated 2019).

The subject of series [1] is WA09 hES cells.
Series [2] relates to WA09 hES cells. The series is described as follows: Phase 2 targeted biomarker assay, ornithine/cystine ratio, 9-point dose response. Particulars: training set; teratogenicity potential scored against therapeutic Cmax.
The subject of another series is Humans. Particulars: training and test set; cited from earlier work.
For series [3], the system named is WA09 hES cells. This is another data set of the same source.

With Cytosine Arabinoside, in the series with WA09 hES cells [1], the “Viability Prediction” value is on record as “TER”. The “Cytotoxicity at the Cmax exposure level” value in the series with WA09 hES cells [1] (human) is “greater than 30%”. For the same substance, in the series with WA09 hES cells [2], the “O/C Ratio Prediction” value is “TER”. In the series on Humans, the “Humans (known human developmental toxicity)” value was “TER”. For the same substance, the “Targeted Biomarker Assay prediction” value with WA09 hES cells [3] is listed as “TER”.
